Test results as given in patent US20030180179A1, “Chemical and biological decontamination material and system” (published 2003).

Test system: Bacillus subtilis (ATCC #6461)

Question: With silver nitrate as the substance, how does the “ZOI (CM)” value read?
Answer: 3.7 CM
